Consider one molecule from EP4830707A1, “PHARMACEUTICAL COMPOSITION FOR PREVENTING/TREATING OCULAR COMPLICATION IN CHRONIC GRAFT-VERSUS-HOST DISEASE” (dated 2026).

Chains of the proteins cited; added tags and fusions are not shown.
UniProt Q13464, whole entry: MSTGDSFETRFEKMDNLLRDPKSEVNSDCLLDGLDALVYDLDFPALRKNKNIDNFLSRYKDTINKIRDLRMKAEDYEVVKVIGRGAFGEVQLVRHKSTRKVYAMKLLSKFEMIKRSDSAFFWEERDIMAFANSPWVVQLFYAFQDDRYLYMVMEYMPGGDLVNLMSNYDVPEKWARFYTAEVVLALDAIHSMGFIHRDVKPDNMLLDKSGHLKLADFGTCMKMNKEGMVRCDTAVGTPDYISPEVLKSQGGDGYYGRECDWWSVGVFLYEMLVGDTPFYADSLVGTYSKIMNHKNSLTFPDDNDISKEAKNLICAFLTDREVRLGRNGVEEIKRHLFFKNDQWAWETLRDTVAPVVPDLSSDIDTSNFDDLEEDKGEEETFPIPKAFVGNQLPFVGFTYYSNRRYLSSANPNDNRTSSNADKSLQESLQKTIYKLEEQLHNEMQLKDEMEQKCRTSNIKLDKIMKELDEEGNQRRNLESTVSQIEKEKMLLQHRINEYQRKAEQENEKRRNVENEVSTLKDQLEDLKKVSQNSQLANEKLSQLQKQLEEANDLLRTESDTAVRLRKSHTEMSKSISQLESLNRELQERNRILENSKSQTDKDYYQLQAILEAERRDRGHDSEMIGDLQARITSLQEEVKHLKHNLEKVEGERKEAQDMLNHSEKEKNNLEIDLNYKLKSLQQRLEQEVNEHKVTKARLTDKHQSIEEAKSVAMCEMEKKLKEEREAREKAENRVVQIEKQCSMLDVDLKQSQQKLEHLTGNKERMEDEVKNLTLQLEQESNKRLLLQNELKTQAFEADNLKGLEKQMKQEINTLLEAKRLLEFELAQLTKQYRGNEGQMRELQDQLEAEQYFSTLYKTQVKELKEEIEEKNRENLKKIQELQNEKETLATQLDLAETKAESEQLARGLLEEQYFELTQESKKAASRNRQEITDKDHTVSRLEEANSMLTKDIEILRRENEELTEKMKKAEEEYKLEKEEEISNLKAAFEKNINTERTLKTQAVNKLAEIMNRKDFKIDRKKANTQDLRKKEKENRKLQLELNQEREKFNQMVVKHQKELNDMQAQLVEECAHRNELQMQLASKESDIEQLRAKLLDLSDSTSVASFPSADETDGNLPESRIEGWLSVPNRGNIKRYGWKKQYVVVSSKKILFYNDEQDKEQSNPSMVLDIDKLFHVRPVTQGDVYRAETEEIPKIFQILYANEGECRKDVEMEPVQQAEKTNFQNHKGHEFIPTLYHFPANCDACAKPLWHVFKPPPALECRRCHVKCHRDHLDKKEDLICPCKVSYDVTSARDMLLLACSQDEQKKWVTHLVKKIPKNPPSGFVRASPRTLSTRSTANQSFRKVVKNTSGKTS
UniProt O75116, whole entry: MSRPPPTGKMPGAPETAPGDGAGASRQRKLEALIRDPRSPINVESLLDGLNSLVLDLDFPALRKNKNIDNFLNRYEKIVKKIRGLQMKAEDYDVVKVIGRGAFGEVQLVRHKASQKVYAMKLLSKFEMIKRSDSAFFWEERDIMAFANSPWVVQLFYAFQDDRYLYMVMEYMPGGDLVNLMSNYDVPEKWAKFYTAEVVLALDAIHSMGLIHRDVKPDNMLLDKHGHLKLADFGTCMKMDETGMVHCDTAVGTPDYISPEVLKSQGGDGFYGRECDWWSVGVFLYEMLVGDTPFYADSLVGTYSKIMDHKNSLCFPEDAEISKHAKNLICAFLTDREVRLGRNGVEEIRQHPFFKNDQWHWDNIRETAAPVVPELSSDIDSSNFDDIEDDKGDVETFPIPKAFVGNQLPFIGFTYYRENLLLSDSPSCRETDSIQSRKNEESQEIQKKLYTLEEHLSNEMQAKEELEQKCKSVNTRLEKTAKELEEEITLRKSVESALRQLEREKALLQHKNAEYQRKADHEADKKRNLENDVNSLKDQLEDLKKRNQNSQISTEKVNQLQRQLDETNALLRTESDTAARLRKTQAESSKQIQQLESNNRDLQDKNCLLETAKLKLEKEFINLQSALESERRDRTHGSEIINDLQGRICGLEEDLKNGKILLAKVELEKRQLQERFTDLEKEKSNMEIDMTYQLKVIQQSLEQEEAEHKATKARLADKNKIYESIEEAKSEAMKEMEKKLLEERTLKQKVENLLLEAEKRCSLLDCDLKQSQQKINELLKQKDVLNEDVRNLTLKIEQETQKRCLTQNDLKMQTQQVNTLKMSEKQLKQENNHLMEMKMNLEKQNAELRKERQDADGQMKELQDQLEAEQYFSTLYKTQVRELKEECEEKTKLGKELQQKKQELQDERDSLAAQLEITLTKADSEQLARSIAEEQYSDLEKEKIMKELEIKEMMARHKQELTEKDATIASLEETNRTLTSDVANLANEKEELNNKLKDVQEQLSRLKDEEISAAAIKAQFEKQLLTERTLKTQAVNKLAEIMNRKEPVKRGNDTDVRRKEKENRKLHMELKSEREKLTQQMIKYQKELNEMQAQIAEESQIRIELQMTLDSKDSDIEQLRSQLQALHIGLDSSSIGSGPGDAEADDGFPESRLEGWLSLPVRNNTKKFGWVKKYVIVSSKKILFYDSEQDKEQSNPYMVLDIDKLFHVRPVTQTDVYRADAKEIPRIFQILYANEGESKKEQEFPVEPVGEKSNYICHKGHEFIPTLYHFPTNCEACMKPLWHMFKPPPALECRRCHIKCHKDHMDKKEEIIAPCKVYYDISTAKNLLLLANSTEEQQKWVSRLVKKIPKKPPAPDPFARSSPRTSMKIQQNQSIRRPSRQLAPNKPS

For assay [1], the target named is ROCK1 (Homo sapiens, UniProt Q13464). In words: Evaluation of ROCK inhibitory effect (phosphorylation reaction of substrates in vitro). Conditions: read-out: ROCK1 inhibitory effect/ IC50 value, phosphorylation reaction of substrates by ROCK1. From the text: (§1) Compounds 1 with various concentrations were used to calculate the concentration which inhibits 50% of the phosphorylation reaction of substrates by ROCK1 or ROCK2 in vitro (hereinafter referred to as "IC50 value").

Assay [2] has as its target ROCK2 (Homo sapiens, UniProt O75116). Described as above. Conditions: read-out: ROCK2 inhibitory effect/ IC50 value, phosphorylation reaction of substrates by ROCK2.
Excerpt: as §1

The subject of assay [3] is cGVHD model mice. Kind of assay: Evaluation of effects of improving ocular complications using cGVHD model animals. As for the experimental part:
cGVHD model mice were used to evaluate whether drug administration improved ocular complications in cGVHD.
The mice were created in the following manner.
Bone marrow transplantation was performed between 7-and 9-week-old allogeneic mice. Specifically, the transplantation was performed using male B10.D2 mice as donors and female BALB/c mice as recipients. This transplantation is hematopoietic stem cell transplantation with matched major histocompatibility complex (MHC) and mismatched minor histocompatibility antigen (MiHA). As controls, non-cGVHD models were also created, in which syngeneic hematopoietic stem cell transplantation was performed (donors and recipients were both BALB/c mice). The transplant method was as follows. The recipient was irradiated with 7 Gy of radiation, then 1 × 10^6 bone marrow cells and 2 × 10^6 spleen cells were each dissolved in 0.1 mL of RPMI solution and placed in one syringe, and a total of 0.2 mL was administered via the tail vein. The transplantation was carried out in a specific pathogen free (SPF) environment, and all experimental animals were similarly fed sterile water and food. The cGVHD model mice and non-cGVHD model mice were each analyzed 4 weeks after transplantation.
The mice were divided into a treatment group in which the compound 1 (concentration: from 0.02% to 0.5%) was administered by eye drops to GVHD model mice (hereinafter referred to as the H-1129 group), and a vehicle group in which phosphate-buffered saline (PBS) as a placebo was administered by eye drops to GVHD model mice. These two groups were compared with a control group in which PBS as a placebo was administered by eye drops to non-GVHD mice.
The eye drops were administered from the day before transplantation until the 27th day after transplantation. On the last day, the systemic GVHD scores and the tear volume by the cotton thread method were measured. The mice were dissected 28 days after transplantation, and the eyelids, eyeballs, and lacrimal glands were histopathologically examined.

Setting [4] is: 0.5% eye drops, histopathology 28 days after transplantation, in comparison to the vehicle group.

As to `C[C@@H]1CNCCCCN1S(=O)(=O)c1ccc2cnccc2c1`, the IC50 in assay [1] came to 520 nM. In addition, the IC50 in assay [2] stood at 230 nM. For the same molecule, in assay [3] (0.5% eye drops from the day before transplantation until the 27th day after transplantation, vehicle group 2.09 ± 0.29 mm, control group 4.29 ± 0.59 mm, p<0.001 vs vehicle), the “amount of tear secretion (tear volume by the cotton thread method)” value amounted to 3.42 ± 0.41 mm. Moreover, in assay [3] (setting [4]), the eyelid fibrosis entry is listed as “improved” and the “major transcription factor Snail-positive cells indicating epithelial-mesenchymal transition” value is “few”. Moreover, the GVHD scores result in assay [3] (0.5% eye drops, systemic GVHD score on the last day, in comparison to the control group (non-GVHD mice)) is “significantly higher”.
